The values below are quoted from earlier work in paper PMC3280956, “DOGS: Reaction-Driven de novo Design of Bioactive Compounds” (PLoS Computational Biology, 2012).

Molecules are shown by their SMILES.

The series addresses Thrombin. To be noted: cited from earlier work.

What is called Ki is a dissociation constant, usually derived from enzyme kinetics or from competition with a known ligand. Take `CC1CCN(C(=O)C(Cc2cccc(C(=N)N)c2)NS(=O)(=O)c2ccc3ccccc3c2)CC1` (stereo not shown) [NAPAMP]: the Ki was 6.2 nM.
